Test results as given in patent US20230097753A1, “ALPHA-HYDROXYLATED FATTY-ACID METABOLITES, MEDICAL USES AND USE AS BIOMARKERS” (UNIVERSITAT DE LES ILLES BALEARS, priority 2020, published 2023).
Like-named read-outs stand apart in the source and are kept apart here. Values belong to the compound of their own block, whether it stands above or below them.

Columns and labels:
[1] = tested on: U-118 MG xenographic tumors; test: U-118 MG xenographic tumors in NUDE mice treated with DHA-H or HPA; type: in vivo; conditions: for Volume of the xenographic tumor 42 days after the start of treatment: 200 mg/kg/day oral; for Levels in xenographic tumors after DHA-H sodium salt: DHA-H sodium salt 200 mg/kg oral, 42 days
Experimental: FIG. 3. […] The levels of DHA (black bars) and HPA (white bars) (pmoles/mg of tissue) in the tumor are represented in the ordinate axis, versus the treatment condition (vehicle and DHA-H 200 mg/kg) in the abscissa axis. NUDE (immunosuppressed) mice at 3 months of age were injected subcutaneously with 7.5.10^6 U118 cells (grade IV human multiform glioblastoma). Tumor growth was allowed at the subcutaneous level for 10 days prior to initiation of oral treatments (vehicle or DHA-H sodium salt 200 mg/kg), which were maintained 42 days until sacrifice. […] B. Tumor HPA levels correlate inversely with tumor size in xenographic models. The size of the tumor (cm^3) is represented, in the ordinate axis, versus the levels of HPA (pmoles/mg of tissue) in the tumor, in the abscissa axis, for two treatment conditions: ∘ vehicle and sodium • salt of DHA-H 200 mg/kg. The presence of HPA in the tumor of animals under treatment with DHA-H sodium salt has astatistically significant linear relationship with tumor volume (A2), where: r^2=0.4296 and p=0.0029.
FIG. 7. A: Tumor growth is inhibited in vivo in the presence of treatment with HPA sodium salt or its prodrug, DHA-H, in xenographic models. The size of the tumor (cm^3) is represented in the ordinate axis, versus the days of treatment elapsed in the abscissa axis. […] After 10 days, the tumors became visible with an approximate volume of 0.1 cm^3. Animals were randomly divided into groups with a similar mean tumor volume and received daily oral treatments for 42 days: o vehicle (untreated control), DHA-H ▴ (200 mg/kg/day) and ▪ HPA (200 mg/kg/day). Tumor volumes (v) were calculated as v=A^2×L/2, where A is the width of the tumor and L is its length. The data obtained for each treatment condition were adjusted to an exponential growth curve. […] The volume of the tumors induced 42 days after the start of the treatments is represented in the ordinate axis, versus the treatment conditions in the abscissa axis. The individualised data of the animals participating in the study are represented: o carrier (untreated control), DHA-H ▴ (200 mg/kg/day) and ▪ HPA (200 mg/kg/day). The bars represent the mean±standard error for each treatment condition and the statistical analysis was performed by unidirectional ANOVA and the Tukey multiple evaluation test: *p<0.05 when compared to the control condition.
The 5xFAD model of Alzheimer's disease is a dual transgenic PS1/APP mouse that harbors five human mutations associated with familial AD (Tg6799 line): Swedish (K670N/M671L), Florida 151(1716V) and London (V717I) in APP; and clinical mutations M146L and L286V in human PS1. […]

U-118 MG cells = test: Intracellular fatty acid levels in U-118 MG cells treated with DHA-H or HPA; type: in vitro ADME
Experimental: (§1) FIG. 4. A. DHA-H is a prodrug that is metabolically transformed into HPA by α-oxidation in U118 cells. The intracellular levels of DHA (black bars), DHA-H (white bars) and HPA (striped bars) are represented on the ordinate axis (nmoles/mg of protein), with respect to the treatment conditions: Control (C) and sodium salt of DHA-H 150 μM (48 h), in the presence or absence of simultaneous treatment with oxythiamine 1 and 10 mM, in the abscissa axis. […] The bars represent the mean±standard error, and the statistical analysis was performed using one-way ANOVA and the Tukey multiple evaluation test: *p<0.05 when comparing only HPA levels. B. Metabolic conversion of DHA-H to HPA is necessary for an anti-tumor effect to exist. The cell viability (% of the control -C- without oxythiamine) is represented in the ordinate axis, with respect to the treatment conditions: Control (C- black bars) and the sodium salt of DHA-H 150 μM, 48 h (white bars) in the presence and absence of simultaneous treatment with 1 mM oxythiamine, in the abscissa axis. […] The bars represent the mean±standard error, and the statistical analysis was performed using one-way ANOVA and the Tukey multiple evaluation test: *p<0.05 when compared to control (C); #p<0.05 when comparing the effect of DHA-H in the presence and absence of oxythiamine.
(§2) FIG. 5. A. Viability of U118 cells in culture after treatment with DHA-H sodium salt, DHA sodium salt, and HPA. The cell viability (% of the control without treatment) is represented in the ordinate axis, versus the different treatment conditions in the abscissa axis: Control (black bar), DHA-H sodium salt (150 μM, 48 h—white bar), DHA (150 μM, 48 h—striped bar) and HPA (150 μM, 48 h—grid bar). Treatment with HPA under the same conditions induces a much more evident degree of mortality on the culture than that induced by DHA-H (prodrug) or DHA (natural analogue). This effect could be due to a mixture of anti-proliferative effect and toxic effects typical of HPA, which would not be attributable to DHA-H or DHA under the same experimental conditions. The bars represent the mean±standard error, and the statistical analysis was performed using one-way ANOVA and the Tukey multiple evaluation test: *p<0.05 when compared to control. B. Intracellular levels of HPA in U118 cells in culture, treated with the sodium salt of DHA-H and HPA. […]
(§3) Cell survival was analyzed in a Barker chamber using trypan blue vital exclusion staining (Scharlab) or by cell proliferation kit II (Roche). […] After different times, plaque viable cells were determined by the addition of XTT according to the manufacturers instructions.

U118 cells = test: Viability of U118 cells after DHA-H, DHA, HPA (150 μM, 48 h); type: cell-based, human; conditions: for Anti-proliferative effect (cell viability): 150 μM, 48 h
Experimental: as §1, §2, §3

U118 MG = test: IC50 in tumor cell cultures (cell survival, XTT / trypan blue); type: cell-based; conditions: U-118-MG; U118 MG human glioblastoma cell line
Experimental: Cell survival was analyzed in a Barker chamber using trypan blue vital exclusion staining (Scharlab) or by cell proliferation kit II (Roche). Briefly, the cells were seeded in 96-well plates at a density of 3 x 10^3 cells per well 24 h prior to treatment, and then cultured in the presence or absence of compounds of interest at the concentrations and for the times indicated in the figures. After different times, plaque viable cells were determined by the addition of XTT according to the manufacturers instructions. Cells were incubated at 37° C. in 5% CO2 until a constant color was developed and absorbance was recorded at 495 nm using a microplate reader with a reference wavelength of 650 nm (FLUOstar Omega, BMG LABTECH, Germany).
The anti-tumor activity of the different metabolites described in FIGS. 8 and 9 was determined by direct treatment with these molecules (HDA or C17:2 ω-6, HTA ω-3 or C17:3 ω-3, HTA ω-6 or C17:3 ω-6, NTA or C19:4 ω-6, NPA or C19:5 ω-3, and HPA or C21:5 ω-3) in tumor cell cultures, on which the IC50 value for each of these compounds was determined (Inhibitory Concentration 50: concentration of study compound that induces death of 50% of the tumor cell population).

U-251 MG glioma cells = test: Cell viability by violet crystal staining, 72 hours; type: cell-based, human; conditions: 72 hours
Experimental: (§4) FIG. 14. Effect of 2OHOA sodium salt, OA and C17:1n-9 sodium salt on cell viability and proliferation of glioma cells. […] Viability was determined by violet crystal staining.
(§5) In order to evaluate the antiproliferative effect of C17:1n-9, its IC50, which corresponds to the amount of a compound needed to reduce cell viability in vitro by 50%, as well as its effect on the regulation of proteins involved in the mechanism of action of 2OHOA, were determined. […] Upon completion of treatment, IC50 was determined by violet crystal staining technique. […] The IC50 of 2OHOA was 1000 μM for non-tumor cells, MRC-5 and astrocytes.

U-118 MG glioma cells [2] = test: as above; type: cell-based, human; conditions: 72 hours
Experimental: as §4, §5

U-118 MG glioma cells [3] = conditions: U-118 MG, 400 μM 2OHOA 24 hours
U-251 MG = test: Cell survival by trypan blue vital exclusion staining, 2OHOA and oxythiamine; type: cell-based, human; conditions: 2 mM oxythiamine, 72 hours
Experimental: FIG. 18. Effect of metabolite C17:1n-9 on the action of 2OHOA. […] Cell viability was determined by vital exclusion staining with trypan blue.
To study whether the metabolite C17:1n-9 can participate in the action of 2OHOA, the effect of pre-incubation with oxythiamine on cell survival and 2OHOA-regulated proteins was studied. To do this, the cell survival of different glioma and non-tumor cell lines treated with 2OHOA (400 μM, 72 hours) and pre-incubated or not with 2 mM […] (90 minutes) was analyzed by counting the cells with the vital exclusion stain with trypan blue. In addition, Western-blot 2OHOA-modulated proteins were studied. In glioma cells, a significant decrease in cell survival was observed after incubation with 2 mM oxythiamine for 72 hours.

U-118 MG glioma cells [4] = test: as above; type: cell-based, human

SMILES: CCC=CCC=CCC=CCC=CCC=CCC=CCC(O)C(=O)O (stereo not shown) [DHA-H, 2-hydroxy-drocosahexaenoic acid]
Volume of the xenographic tumor 42 days after the start of treatment [1]: reduce the volume of the xenographic tumor significantly
Levels in xenographic tumors after DHA-H sodium salt [1]: undetectable levels
HPA treatment concentration generating equivalent intracellular HPA levels (U-118 MG cells; U118, 150 μM DHA-H sodium salt, 48 h): 5 µM
Endogenous levels of DHA after treatment (U-118 MG cells; U-118 MG, DHA-H): no effect
HPA levels after addition of DHA-H (U-118 MG cells; U-118 MG, DHA-H 150 μM, 48 h): significant increase in HPA levels
Anti-proliferative effect (cell viability) (U118 cells; U118-MG): significant anti-proliferative effect
Anti-proliferative effect in the presence of oxythiamine (U118 cells; U118-MG, DHA-H 150 μM 48 h with 1 mM oxythiamine): partially reversed

SMILES: CCCCC/C=C\C/C=C\CCCCCCC(=O)O [HDA, (8Z,11Z)-heptadeca-8,11-dienoic acid]
IC50 (U118 MG): 144 ± 32 µM

Levels in xenographic tumors after DHA-H sodium salt [1]: tumor accumulation
SMILES: CC/C=C\C/C=C\C/C=C\C/C=C\C/C=C\CCCCC(=O)O [HPA, (6Z,9Z,12Z,15Z,18Z)-heneicosa-6,9,12,15,18-pentaenoic acid]
Volume of the xenographic tumor 42 days after the start of treatment [1]: reduce the volume of the xenographic tumor significantly
IC50 (U118 MG): 124 ± 16 µM
Anti-proliferative effect (cell viability) (U118 cells; U118-MG): much higher

SMILES: CC/C=C\C/C=C\C/C=C\CCCCCCC(=O)O [HTA n-3, (8Z,11Z,14Z)-heptadeca-8,11,14-trienoic acid]
IC50 (U118 MG): 129 ± 3 µM

SMILES: CCCCC/C=C\C/C=C\C/C=C\CCCC(=O)O [HTA n-6, (5Z,8Z,11Z)-heptadeca-5,8,11-trienoic acid]
IC50 (U118 MG): 235 ± 26 µM

SMILES: CC/C=C\C/C=C\C/C=C\C/C=C\C/C=C\CCC(=O)O [NPA, (4Z,7Z,10Z,13Z,16Z)-nonadeca-4,7,10,13,16-pentaenoic acid]
IC50 (U118 MG): 90 ± 9 µM

SMILES: CCCCC/C=C\C/C=C\C/C=C\C/C=C\CCC(=O)O [NTA, (4Z,7Z,10Z,13Z)-nonadeca-4,7,10,13-tetraenoic acid]
IC50 (U118 MG): 113 ± 13 µM

IC50 (U-251 MG glioma cells): 237 ± 6.52 µM
IC50 (U-118 MG glioma cells [2]): 226 ± 7.3 µM
SMILES: CCCCCCCC/C=C\CCCCCCCC(=O)[O-].[Na+] [OA, reference compound]

SMILES: Cc1ncc(C[n+]2csc(CCO)c2C)c(=O)[nH]1 [oxythiamine, reference compound]
Reduction in C17:1n-9 formed from 2OHOA (U-118 MG glioma cells [3]; 1 mM oxythiamine pre-incubation): 51.35%
Increase in the amount of 2OHOA (U-118 MG glioma cells [3]; 4mM oxythiamine): 12.33%
Increase in the amount of 2OHOA (U-118 MG glioma cells [3]; 10 mM oxythiamine): 52.94%
Reduction in C17:1n-9 formed from 2OHOA (U-118 MG glioma cells [3]; 10 mM oxythiamine): 58.45%
Effect on the DHA-H induced increase in HPA levels (U-118 MG cells; U-118 MG, simultaneous 1 or 10 mM oxythiamine): inhibited
Cell death (U-251 MG): 18.51±0.58%
Effect on cell viability (U118 cells; U-118 MG, 1 mM oxythiamine alone): no effect on cell viability
Cell death (U-118 MG glioma cells [4]; oxythiamine 1 mM alone): 12.16±0.5%
Cell death (U-118 MG glioma cells [4]; oxythiamine 2 mM alone): 21.17±1.76%
Maximum cell survival inhibition (U-118 MG glioma cells [4]; oxythiamine 10 mM alone): 27.13±0.41%
